The values below come from patent publication US12099068B2, “Biomarkers for graft-versus-host disease” (Incyte Corporation, priority 2018, dated 2024).

For the assay, the system named is plasma proteins. Put plainly: OLINK plasma protein change between baseline (day 1) and day 28 in complete responders, Example 2. The format is in vivo, human. To be noted: + corticosteroids. From the text:
Plasma samples were collected from individuals enrolled in the clinical study of Example 1 at baseline and at day 28.
Table 5 identifies proteins that changed in complete responders between day 1 (baseline) to day 28. Fold change in this example represents the change of a protein level between day 1 (baseline) versus day 28. A paired t test was used to compare the relative change between level of a protein between day 1 and day 28. Table 5 identifies biomarkers of therapeutic response.
Therefore, these proteins are designated as baseline predictive biomarkers.

As for `N#CCC1(n2cc(-c3ncnc4[nH]ccc34)cn2)CN(C2CCN(C(=O)c3ccnc(C(F)(F)F)c3F)CC2)C1` [itacitinib, {1-{1-[3-Fluoro-2-(trifluoromethyl)isonicotinoyl]piperidin-4-yl}-3-[4-(7H-pyrrolo[2,3-d]pyrimidin-4-yl)-1H-pyrazol-1-yl]azetidin-3-yl}acetonitrile], under “not significant”, the “Fold Change HSD11B1 between Day 1 and Day 28” value is 1.0468; the “Fold Change TIMP4 between Day 1 and Day 28” value is reported as −1.1371. Moreover, where the note is “significantly modulated”, the “Fold Change DSC2 from Baseline to Day 28” value is reported as −1.4423.
